US12492232B2, “Methods for producing proteins” (South Australian Health and Medical Research Institute …, priority 2018, dated 2025)
Entries after “also recorded” stand apart in the source; their conditions may differ.

Tests used:
Type in all cases: cell-based
[1] = tested on: mTORC1 signalling; experiment: mTORC1 signalling (Western blot, S6K1 and rpS6) in transfected CHO cells starved of serum and amino acids, with or without TSC1/2 co-transfection
From the text: FIGS. 1A-1B: Recombinant GST-Rheb proteins were subjected to GAP assay in the presence of FLAG-TSC1, FLAG-TSC2 and [α-^32P] GTP. GST-Rheb bound to GDP or GTP was pulled down using glutathione beads and the nucleotides were then separated by thin-layer chromatography and visualized by phosphorimager. The positions of GDP and GTP are shown (FIG. 1A). […] FIGS. 1C-1D: CHO cells were co-transfected using Lipofectamine 3000 with vectors encoding wildtype (WT) Rheb or the indicated mutants and TSC1/2 as indicated. 36 h after transfection, cells were transferred to Ham's F12 media lacking FBS for 16 h. Cells were the transferred to Dulbecco's phosphate-buffered saline (D-PBS, which lacks amino acids) for 1 h before cell lysates were harvested for SDS-PAGE and Western Blotting analysis using the indicated antibodies. […] This effect is consistent with lack of sensitivity of the mutant Rhebs to TSC1/TSC2. Thus the Rheb mutants S21L, T23M, G29S, Y35N and E40K promote mTORC1 signalling in the absence of upstream activation due to insensitivity to the GAP activity of the TSC complex.

[2] = tested on: CHO cells; experiment: Growth of transfected CHO cells in medium with 10%, 1%, 0.5% or 0% FBS (cell counts over 7 days); details: compared with Rheb-T23M
Description: CHO cells were seeded into 24-well plates at 5,000 cells/well. 24 h after seeding, cells were transfected using Lipofectamine3000 with an empty vector or vectors for Rheb WT, S21L, T23M, G29S, Y35N or E40K. 24 h after transfection, cells were transferred to medium containing 10%, 1%, 0.5% or 0% FBS as indicated. Every 24 h for 7 days, cells were trypsinized (from different dishes on each occasion) and counted on a haemocytometer. Growth medium was changed every 2 days. […] This effect may be highly advantageous for the propagation of CHO cells under industrial conditions in defined or minimal media.
CHO cells were seeded into 24-well plates at 5,000 cells/well. 24 h after seeding, cells were transfected using Lipofectamine3000 with an empty pcDNA3.1 vector or vectors for FLAG-tagged Rheb WT, S21L, T23M, G29S, Y35N or E40K. 24 h after transfection, cells were transferred to media (Ham's F12 from Life Technologies, Cat. No. 11765054) containing 10%, 1%, 0.5% or 0% foetal bovine serum, as indicated. Cells were trypsinized and counted on a haemocytometer every 24 h for 7 days. Growth medium was changed every 2 days.

[3] = tested on: mTORC1 localisation at the lysosome; experiment: Immunofluorescence of mTOR and LAMP1 colocalisation in serum-starved transfected CHO cells; details: medium lacking FBS for 16 h
Description: CHO-K1 cells were seeded in chamber slides at a density of 50,000 cells/slide 24 h prior to transfection via Lipofectamine3000 with an empty vector or vector for Rheb-WT, T23M, Y35N or E40K. 24 h after transfection cells were transferred to medium lacking FBS for 16 hours. Cells were fixed with 4% paraformaldehyde, permeabilized with 0.05% Triton X-100, blocked with 10% normal donkey serum before LAMP1 and then anti-mTOR antibodies were applied overnight. Alexa Fluor™ 488 and 594-labelled secondary antibodies were applied before cells were mounted and stained with DAPI.
CHO cells were seeded into chamber slides at a density of 50,000 cells/slide 24 h prior to transfection via Lipofectamine3000 with an empty pcDNA3.1 vector or Rheb-WT, T23M, Y35N or E40K. 24 h after transfection cells were transferred to medium lacking FBS for 16 h. Cells were fixed with 4% paraformaldehyde, permeabilized with 0.05% Triton X-100, blocked with 10% normal donkey serum before LAMP1 and mTOR antibodies were applied overnight. Alexa Fluor™ 488 and 594 secondary antibodies were applied before cells were mounted and stained with DAPI.

Rheb-WT: wildtype human Rheb (Ras homologue enriched in brain) protein, UniProtKB Q15382, SEQ ID NO. 2 [reference compound]
mTORC1 signalling in the absence of upstream activation ([1]; no serum 16 h, D-PBS 1 h, compared to empty vector and Rheb-WT): maintained mTORC1 signalling | mTORC1 signalling when co-transfected with TSC1/TSC2 ([1]; no serum and amino acids, co-transfected with TSC1/TSC2): mTORC1 signalling was suppressed | effect in promoting cell proliferation under serum-deficient conditions [2]: far smaller effect | mTOR localisation to the lysosome (overlap with LAMP1) [3]: little overlap of the proteins; also recorded: little observed overlap of the signals
